# Binding of CDR-mutated scFvs to a peptide of the spike HR2 region

Target peptide (SARS-CoV-2 spike, HR2 region): PDVDLGDISGINAS

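The parent was found by panning a naive human phage display library on the peptide. The library (AAYL50) carries one to three amino acid substitutions per variant, with no insertions or deletions. AlphaSeq pools MATa yeast showing the antibodies with MATalpha yeast showing the peptide. After mating in shaken culture at 30 °C for 16 h, diploids were selected and their barcode pairs sequenced. Each replicate has its own calibration line, from reference interactions of the BCL2 family. The assay was run in three technical replicates.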

Ab-14 is the parent antibody, in scFv form: VH, then three GGGGS repeats, then VL. The heavy chain is unchanged in all variants.
VH: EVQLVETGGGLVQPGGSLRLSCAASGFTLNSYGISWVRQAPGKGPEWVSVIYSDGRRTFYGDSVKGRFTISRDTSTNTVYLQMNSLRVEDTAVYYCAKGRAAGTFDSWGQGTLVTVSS
VL: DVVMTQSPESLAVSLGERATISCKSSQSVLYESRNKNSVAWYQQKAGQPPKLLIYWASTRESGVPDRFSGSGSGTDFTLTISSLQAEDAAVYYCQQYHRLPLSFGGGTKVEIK

The parent's light chain CDRs are KSSQSVLYESRNKNSVA, WASTRES, QQYHRLPLS; each variant's own CDRs replace them letter for letter.
The read-out is the apparent dissociation constant on a log10 scale (nM): the lower, the stronger.
Averages over replicates are reported, and they cover detected replicates only.
"nd" marks a missing value. The strain was present, yet no cells mated with the target were sequenced in that replicate, which points to weak or no binding.
As a blank, each scFv also met three strains without target: over library AAYL50, 18% of these pairings were detected, typically at 4.19 and seldom below 2.99. Also given: how often the same scFv was detected with the empty control strains, with their mean in brackets.
In this assay the parent's reference entry averaged 0.65; its copy inside this library read 1.68.

| CDR-L1 | CDR-L2 | CDR-L3 | log10 Kd, replicates | mean log10 Kd (nM) | control signals |
|---|---|---|---|---|---|
| KSSQSVLYESRNKNSVA | WASTHES | QVYHRLSLS | 5.51 nd nd | 5.51 | 3 of 9 (4.35) |
| KSSQSVLYENRNLNSVA | WASTWES | QQYHRLPLS | 3.56 nd nd | 3.56 | 1 of 9 (2.92) |
| KSSQSFLWESRNCNSVA | WASTRES | QQYHRLPLS | 1.25 1.33 1.37 | 1.32 | 0 of 9 |
| KSSQSVLYESRNKNSVA | WLSTRES | QQYDRLPLS | nd nd 5.15 | 5.15 | 0 of 9 |
| TSSQSFLYESRNANSVA | WASTRES | QQYHRLPLS | 1.69 1.75 1.69 | 1.71 | 4 of 9 (4.13) |
| KSSQSVLYESRNKNSQA | WLGTRES | QQYHRLPLS | nd nd nd | nd | 0 of 9 |
| KSQQSVLYPSRNKNSVA | WASTNES | QQYHRLPLS | nd nd nd | nd | 1 of 9 (3.22) |
| KSSQSVDYESRNKNSVA | WASTREP | QQYHRLPLS | 0.29 0.58 0.42 | 0.43 | 0 of 9 |
| KCSQSVLYESTNKNSVA | WASTRES | QQYHALPLS | 0.31 0.57 0.45 | 0.44 | 1 of 9 (5.03) |
| KSSQSVLYISRNKNSVA | WASTRES | QQPHRLKLS | nd nd nd | nd | 0 of 9 |
| NSSQSVLYESWNKNSVA | WASTRES | QQYHRLPLE | 0.94 0.88 1.16 | 0.99 | 1 of 9 (3.25) |
| KSSQSVLYESMNKNSGA | WASTRES | QQYHRLPLS | nd nd nd | nd | 1 of 9 (3.42) |
| KSSQSVLYESKNKNSPA | WASTEES | QQYHRLPLS | nd 3.72 nd | 3.72 | 0 of 9 |
| KSAQSVLYESRNKNSVA | MANTRES | QQYHRLPLS | 1.34 1.46 1.59 | 1.46 | 1 of 9 (4.13) |
| KSSQSVLYESRNKNSVA | IASTRES | QQYHRLPLS | nd nd 4.99 | 4.99 | 4 of 9 (4.85) |
| KSSQSVLYEARNFNSVA | WASTREN | QQYHRLPLS | 1.86 2.22 2.41 | 2.16 | 3 of 9 (4.66) |
| KSSQSVLYESRNRNSVS | WASTRES | QQYHRLWLS | nd nd 4.97 | 4.97 | 0 of 9 |
| KSSQSVCYKSRNKNSVA | WASTRFS | QQYHRLPLS | nd nd nd | nd | 0 of 9 |
| KFSQSVLYESRNKNSVT | WASTRES | QQYHRLPLS | nd nd nd | nd | 0 of 9 |
| KSSQSVLYESRNKNSVH | WASTREF | QQGHRLPLS | nd nd nd | nd | 2 of 9 (3.49) |
| KSSQSVLYLSRNPNSVA | WASTRES | QQYHRLPLS | 0.76 0.97 0.90 | 0.88 | 0 of 9 |
| LSSQSVLKESRNKNSVA | LASTRES | QQYHRLPLS | 2.24 nd nd | 2.24 | 0 of 9 |
| KSSQSVLYESRNPNSVA | WASTRES | QQYHRLPLS | 0.61 0.92 0.69 | 0.74 | 1 of 9 (4.41) |
| KSSQSVYIESNNKNSVA | WASTRES | QQYHRLPLS | 0.66 0.90 0.84 | 0.80 | 0 of 9 |
| KSSQSVLYESRNKNSVA | WASTREV | QQYHRVVLS | nd nd nd | nd | 0 of 9 |
| KSSQSVLYESRNFNSVA | WASTRES | QQCHRLPRS | nd nd nd | nd | 1 of 9 (3.40) |
| KSSQSVLYESRNKNSVA | SASTRES | YQYHRLPMS | 1.14 1.28 1.24 | 1.22 | 9 of 9 (4.63) |
| KSSTSVLYESRNKNSVA | WASKRES | QQYHRLPLP | nd 5.04 6.11 | 5.58 | 4 of 9 (4.04) |
| KSSQSVLYESRNKNSWA | WASTRES | QQYFRLILS | 3.16 3.32 nd | 3.24 | 0 of 9 |
| KSSQSVLYESRNKNSNA | WTSTRES | QQYHRLKLS | 4.50 nd nd | 4.50 | 1 of 9 (4.23) |

The opening 4 entries, copied out:

CDR-L1,CDR-L2,CDR-L3,"log10 Kd, replicates",mean log10 Kd (nM),control signals
KSSQSVLYESRNKNSVA,WASTHES,QVYHRLSLS,5.51 nd nd,5.51,3 of 9 (4.35)
KSSQSVLYENRNLNSVA,WASTWES,QQYHRLPLS,3.56 nd nd,3.56,1 of 9 (2.92)
KSSQSFLWESRNCNSVA,WASTRES,QQYHRLPLS,1.25 1.33 1.37,1.32,0 of 9
KSSQSVLYESRNKNSVA,WLSTRES,QQYDRLPLS,nd nd 5.15,5.15,0 of 9

Reference: Engelhart et al. 2022, doi:10.1038/s41597-022-01779-4. File: FLAb, binding data.